Test [1] addresses Large neutral amino acids transporter small subunit 1 (Homo sapiens) (UniProt Q01650). Description: Trans-stimulation of human LAT1 expressed in TREx HEK293 cells assessed as induction of [3H]-gabapentin efflux at 200 uM after 3 mins by scintillation counting analysis relative to L-phenylalanine. The test is classed as cell-based.
For test [2] the target is unchanged. Nature of the test: Cis-inhibition of human LAT1 expressed in TREx HEK293 cells at 200 uM assessed as inhibition of [3H]-gabapentin uptake at 200 uM preincubated for 3 mins at 37 degC followed by washing with choline buffer and measured after 3 hrs by scintillation counting analysis relative to BCH. Format: cell-based.

By UniProt entry, the sequences of proteins in these tests, tags left out. Where a name states a change or a piece, a line headed by the entry shows the natural chain unless it says otherwise.
UniProt Q01650: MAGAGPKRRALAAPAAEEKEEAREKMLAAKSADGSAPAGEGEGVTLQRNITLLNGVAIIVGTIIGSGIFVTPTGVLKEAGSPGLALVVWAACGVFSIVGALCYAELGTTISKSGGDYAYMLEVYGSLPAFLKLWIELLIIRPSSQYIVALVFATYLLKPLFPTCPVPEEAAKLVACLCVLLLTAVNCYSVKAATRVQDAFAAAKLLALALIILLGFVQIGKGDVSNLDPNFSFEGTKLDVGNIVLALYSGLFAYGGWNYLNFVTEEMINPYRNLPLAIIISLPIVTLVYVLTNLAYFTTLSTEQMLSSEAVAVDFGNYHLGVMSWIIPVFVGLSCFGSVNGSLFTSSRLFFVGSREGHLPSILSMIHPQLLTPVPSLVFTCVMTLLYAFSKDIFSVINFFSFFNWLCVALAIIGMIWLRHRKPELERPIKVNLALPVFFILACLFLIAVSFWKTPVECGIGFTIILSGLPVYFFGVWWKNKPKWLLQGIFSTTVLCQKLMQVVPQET

On to `Cn1cnc(C[C@H](N)C(=O)O)c1`, for which the Activity in test [1] is 85%.
`N[C@@H](Cc1ccc(C(=O)O)cc1)C(=O)O`: in test [1], the Activity was found to be 20%. Besides, the inhibition in test [2] turned out to be 8.9%.
In the case of `C[C@@](N)(Cc1ccccc1)C(=O)O`, in test [1], the Activity stood at 100%.
`N[C@@H](Cc1ccccn1)C(=O)O`: in test [1], the Activity was found to be 140%. For the same compound, the inhibition in test [2] stood at 84%.
The matching figures for `N[C@@H](Cc1ccncc1)C(=O)O`: 89% and 99%.
As for `C[C@](N)(Cc1ccccc1)C(=O)O`, the Activity in test [1] stood at 100%.
In the case of `N[C@@H](Cc1cccnc1)C(=O)O`, in test [1], the Activity is 130%. The inhibition in test [2] worked out at 98%.
On the same counts, the results for `N[C@H](CC1CCCCC1)C(=O)O` are 130% and 42%.
Consider `N[C@@H](CC1CCCCC1)C(=O)O`, for which the Activity in test [1] worked out at 120%. In addition, the inhibition in test [2] came out at 32%.

The term inhibition denotes the change of the read-out against control, counted positive when it falls.

Values taken from ChEMBL document CHEMBL4229477, “Reevaluating the Substrate Specificity of the L-Type Amino Acid Transporter (LAT1)” (J Med Chem, 2018).
